Patent US11596632B2, “JAK1 pathway inhibitors for the treatment of gastrointestinal disease” (Incyte Corporation, priority 2018, dated 2023)
pIC50: −log10 of the molar value.

By UniProt entry, the sequences of proteins in these tests, tags left out. Residues count along the entry.
UniProt P23458, 837-1142 limits assumed: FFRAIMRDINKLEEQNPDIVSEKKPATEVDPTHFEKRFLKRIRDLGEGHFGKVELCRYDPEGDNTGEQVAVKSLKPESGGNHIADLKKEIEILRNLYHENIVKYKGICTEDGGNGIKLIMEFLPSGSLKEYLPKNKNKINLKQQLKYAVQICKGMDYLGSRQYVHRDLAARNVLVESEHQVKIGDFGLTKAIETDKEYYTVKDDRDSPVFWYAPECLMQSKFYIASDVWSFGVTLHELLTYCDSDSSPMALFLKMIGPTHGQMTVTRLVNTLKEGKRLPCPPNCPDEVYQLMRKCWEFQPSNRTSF
UniProt O60674, 828-1132 limits assumed: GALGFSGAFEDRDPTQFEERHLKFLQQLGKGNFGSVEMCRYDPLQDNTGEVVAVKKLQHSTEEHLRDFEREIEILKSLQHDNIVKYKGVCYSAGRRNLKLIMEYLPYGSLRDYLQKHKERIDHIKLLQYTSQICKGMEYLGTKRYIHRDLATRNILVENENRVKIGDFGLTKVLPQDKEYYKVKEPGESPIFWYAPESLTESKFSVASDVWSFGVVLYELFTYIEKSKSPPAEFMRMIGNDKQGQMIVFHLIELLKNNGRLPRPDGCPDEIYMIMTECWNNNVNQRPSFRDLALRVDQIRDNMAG

Key:
[1] = biological target: human JAK1 (a.a. 837-1142) (Homo sapiens (Human), UniProt P23458); assay: In vitro JAK kinase assay (HTRF), JAK1; format: biochemical; conditions: read-out: JAK1 IC50; 1 mM ATP
JAK2 (a.a. 828-1132) = JAK2 (a.a. 828-1132) (Homo sapiens (Human), UniProt O60674); assay: In vitro JAK kinase assay (HTRF), JAK2 relative to JAK1; format: biochemical; conditions: IC50 ratio, 1 mM ATP

SMILES | pIC50 [1] | JAK2/JAK1 (JAK2 (a.a. 828-1132))
N#CCC(CN1CCN(C(=O)c2ccc(C#N)cc2F)CC1)n1cc(-c2ncnc3[nH]ccc23)cn1 (stereo not shown) | > 8.00 | >10
C[C@H](NC(=O)c1cc(F)c(N2CC(CC#N)(n3cc(-c4ncnc5[nH]ccc45)cn3)C2)cc1F)C(F)(F)F | > 8.00 | >10
